Values of other authors, collected in patent US20140303128A1, “TRANSMUCOSAL HORMONE DELIVERY SYSTEM” (priority 2013, published 2014).
Only a part of the results on these compounds is given; other tests are left out.

Details: current transmucosal therapy (lollipop)

CCC(=O)N(c1ccccc1)C1CCN(CCc2ccccc2)CC1
time to reach maximum plasma concentrations: over 20 minutes
